The numbers were not newly measured in patent US5310762A, “Medicaments” (Burroughs Wellcome Co., priority 1988, dated 1994), which cites them from elsewhere.

The conditions of the data set: AIDS patients; much higher than usual; Wofsy 1986; cited from earlier work.

As to trimethoprim-sulphamethoxazole, the “incidence of adverse reactions” value is given as “around 50%”.
